This note sets out measurements from paper PMC10976160, “Comparative Pharmacokinetics Research of 13 Bioactive Components of Jieyu Pills in Control and Attention Deficit Hyperactivity Disorder Model Rats Based on UPLC-Orbitrap Fusion MS” (Molecules, 2024).

This data set in a line: Pharmacokinetics in control rats after gavage of JYPs. The format is in vivo, Sprague Dawley (SD) rats. As to conditions: oral JYPs. The source says:
According to the established method for the analysis of serum biological samples, the pharmacokinetics of various components of rat serum were investigated after the administration of different dosages of JYPs to control rats.
For the control experiment, healthy male Sprague Dawley (SD) rats of SPF grade ([…] ± 20 g) were purchased from Sipeifu (Beijing) Biotechnology Co., Ltd. (Beijing, China), Animal Quality Certificate No. 110324220102348616. For the ADHD model rats, healthy male SHR rats of SPF grade, weighing 220 ± 20 g, were purchased from SBF (Beijing) Biotechnology Co., Ltd. (Beijing, China), License No. SCXK (Yu) 2019-0010. The animals were accommodated in the Animal Center of Henan University of Traditional Chinese Medicine, which successfully underwent an ethical audit with ethics number DWLL202208003. The animals were bred under controlled conditions at a temperature of 24 °C and a relative humidity of 50 ± 2%. Before the experiment, the animals abstained from eating for 12 h and had unrestricted access to water. […]
We took 200 μL of plasma, added 600 μL of methanol solution and 50 μL of internal standard (100 ng/mL), and subjected it to shaking for 5 min, followed by centrifugation at 4 °C at 12,000 r/min for 10 min. […] The drug concentration in plasma was calculated with the aid of the internal standard.

With Oxypaeoniflorin, the “peak time (Tmax)” value is given as under 1 h.
